Values quoted from earlier work as cited in patent US20200188476A1, “ANTI-MICROBIAL AGENT-POLYMER CONJUGATES AND METHODS OF USE THEREOF” (The Regents of the University of California, priority 2017, published 2020).

Conditions: compared with polymyxin B

For “Polymyxin B nonapeptide [nonapeptide of polymyxin B]”, the in vivo toxicity is given as “significantly less than that of polymyxin B itself”.
